Earlier results in patent US9433683B2, “Reversible pegylated drugs” (Yeda Research and Development Co., Ltd., priority 2003, dated 2016).

Test system: hepatitis C
Conditions: hepatitis C patients; cited from earlier work

Row | Substance | sustained anti-viral response rate [%]
1 | 12 kDa-PEG-IFNα2: non-reversible 12 kDa-PEG-IFNα2 conjugate, therapeutically approved in 2001 | 24
2 | IFNα2: Non-glycosylated human IFN-α2 | 12
